# Screening results deposited in PubChem by National Center for Advancing Translational Sciences (NCATS).
# Rango dissoc inh: inhibitors of RanGTP-induced Rango-importin beta complex dissociation; O95149+P62826; Biochemical FRET Rango-importin beta, RanGTP-induced dissociation; Potency, µM (titrated, usually from 46.1 µM), for inactives: at the top dose activity change, negative = inhibition; actives 0.071% (n = 340,000); AID 540253; calls by dose curve; note: % of control where 0% means no effect; nearly all actives have a fitted effect of over 45% in size
#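 Rango/importin beta premix (0.1/0.25 uM final), PBS + 1 mM DTT + 0.02% Tween-20 + 0.1% BSA; cpd 5 min RT; FRET pre-read; + RanGTP-RCC1 (0.6 uM Ran, 2 mM GTP, 0.2 uM RCC1); 45 min RT; FRET post-read, ex 430, em 486/530 nm.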
# EPAC1 ag: activates human EPAC1 exchange factor; O95398; EPAC1 agonist qHTS, biochemical assay; response scale: 100% = response to 6.5 mM cAMP; Potency, µM (top dose mostly 154 µM), inactives show at the highest dose activation, hits mostly activators; actives 0.073% (n = 360,000); note: nearly all actives have a fitted effect of over 60% in size
#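 Compounds were pinned as a concentration titration into mixtures of EPAC1 (100 nM), BODIPY-GDP-loaded Rap1B (250 nM) and GDP (50 uM). After 5 min at room temperature, fluorescence was followed for 30 min; activity was scaled to 6.5 mM cAMP.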
# Rango-impB inh: Rango-importin beta binding inhibition; actives 0.031% (n = 340,000); Q14974; Rango CFP/YFP FRET sensor + importin beta, 45 min; Potency, µM (titrated, usually from 92.2 µM), for the others: at the highest dose inhibition of complex formation; AID 540263; calls by dose curve;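 note: 0% = DMSO wells and 100% = buffer wells lacking importin beta; nearly all actives have a fitted effect of over 15% in size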
#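 FRET biosensor Rango (snurportin 1 IBB between N-terminal EYFP and C-terminal Cerulean), 50 nM in PBS/1 mM DTT/0.02% Tween-20/0.1% BSA, preincubated 5 min RT with compound; 0.125 microM importin beta added, 45 min RT, CFP/YFP FRET ratio read.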
# EPAC2 antag: EPAC2 (human) antagonism; Q8WZA2; EPAC2 GEF exchange of Rap1B-BODIPY-GDP, fluorescence; Potency, µM (highest dose often 114 µM), inactives show at the highest dose activity, negative = inhibition, actives largely listed as inhibitors; actives 0.18% (n = 360,000); note: % is set by controls: 0 for no effect and ±100 for the full control effect; nearly all actives have a fitted effect of over 45% in size
# EPAC2 agonist: agonists of human EPAC2 (RAPGEF4). Q8WZA2. EPAC2 activation, biochemical qHTS; response scale: 100% = 6.5 mM cAMP response. Potency, µM (highest dose often 154 µM), for the others: top-dose activation, actives largely listed as activators. actives 0.079% (n = 360,000). AID 720711; note: nearly all actives have a fitted effect of over 50% in size
#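 In this primary screen, activation is scored as increased exchange of BODIPY-GDP from Rap1B by 100 nM EPAC2, with 50 uM GDP as competitor. Signal is normalized to the 6.5 mM cAMP agonist control.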
# EPAC1 antagonist: blocks human EPAC1 exchange factor | EPAC1 GEF assay, Rap1b-BODIPY-GDP exchange fluorescence | Potency, µM (titrated, usually from 115 µM), for the others: at the top dose activity change, negative = inhibition, usual class: inhibitors | actives 0.14% (n = 360,000) | AID 720709;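 note: plate controls were vehicle for no effect and positive control for full effect; nearly all actives have a fitted effect of over 50% in size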
# * hit, by the source's call; i = inactive; ? = inconclusive; [ ] = another dose, or the depositor's remark. Sampled rows, rich in hits. Any-hit rate of the full collection: about 0.43%. Unless noted, calls come from the whole dose curve; as a rule, active = well fitted curve in the direction sought with a large enough effect; inconclusive = small, poorly fitted or top-dose-only effect, or another doubt; inactive = no such curve, though single readings can be large; an effect the other way counts as inactive or inconclusive. Potency is the fitted concentration of half-maximal effect.
SMILES,Rango dissoc inh,EPAC1 ag,Rango-impB inh,EPAC2 antag,EPAC2 agonist,EPAC1 antagonist
Cc1ccc(C(C[N+](=O)[O-])c2c(-c3ccccc3O)[nH][nH]c2=O)cc1 (stereo not given),16.2%,-16.6%,0.6%,11.2µM*,-3.1%,-17.4%
O=c1[nH][nH]c(-c2ccccc2O)c1C(C[N+](=O)[O-])c1ccc(Br)cc1 (stereo not given),0.5%,-13.0%,0.4%,11.2µM*,-8.7%,17.1%
CC(C)(C)C(=O)N1CCN(c2nc3ccc(Cl)cc3s2)CC1,6.8%,6.2%,1.7%,1.0%,0.2%,-25.8%
O=C(/C=C/c1ccccc1)c1c[nH]c2ccccc12,7.6%,4.6%,-1.2%,3.8%,4.7%,-16.9%
O=C(C=Cc1ccccc1)c1c[nH]c2ccccc2c1=O,0.0%,0.4%,2.7%,-0.7%,3.8%,79.4µM*
Nc1nnc(SCC(=O)NC2CCCCCCC2)s1,-0.2%,1.1%,-0.6%,3.9%,11.4%,-19.3%
O=c1c2nncn2c2cccnc2n1CCNc1ncc(C(F)(F)F)cc1Cl,-5.5%,12.4%,5.5%,-4.2%,2.2%,-15.1%
Cc1ccc(NS(=O)(=O)c2cc([N+](=O)[O-])ccc2NNC(=S)Nc2cccc(Cl)c2)c(C)c1,-19.9%,-17.8%,2.7%,50.1µM*,-16.0%,50.1µM*
Cc1ccc(NS(=O)(=O)c2cc([N+](=O)[O-])ccc2NNC(=S)Nc2cc(C)ccc2C)c(C)c1,32.9%,13.5%,5.7%,-4.4%,-5.1%,-12.8%
COc1ccc(/C=C2\OC(=S)N(C)C2=O)cc1,-4.8%,7.9%,-4.6%,-1.0%,9.9%,5.6%
CN1C(=O)/C(=C\c2ccc(N(C)C)cc2)OC1=S,?,89.1µM*,?,3.0%,-4.9%,23.1%
CCCn1c(O)c(N=NC(=O)c2cccnc2)c2cc(Br)ccc21,-4.3%,-4.4%,-1.8%,-1.1%,-7.5%,-0.9%
CCOc1cccc(CNc2ccc(O)cc2)c1OCc1ccc(Cl)cc1Cl,0.0%,13.4%,-1.0%,?,-7.2%,50.1µM*
CCOc1cccc(CNc2ccc(O)cc2)c1OCc1ccccc1Cl,-9.9%,15.0%,-5.3%,-7.9%,-14.5%,28.2µM*
Cc1ccc(Cl)cc1N1CCN(C(=O)C2CCC(=O)N2C(C)C)CC1 (stereo not given),-10.1%,-1.7%,1.7%,7.1%,4.8%,4.5%
COc1ccc(N(C(=O)c2ccco2)S(=O)(=O)c2ccc(F)cc2)cc1,-4.7%,14.2%,3.4%,5.5%,9.4%,9.7%
COc1ccc(N(C(=O)c2ccco2)S(=O)(=O)c2cc(OC)ccc2OC)cc1,-7.7%,6.2%,8.2%,-11.3%,10µM*,-0.9%
Cc1cc(C)c(C#N)c(Oc2ccc(F)cc2)n1,-2.2%,-0.4%,4.2%,11.9%[57.1 µM],2.2%,18.1%
CC1CCCCC1NC(=O)COC(=O)c1c2c(nc3ccccc13)/C(=C\c1ccco1)CC2 (stereo not given),2.31µM*,-27.5%,?,-2.0%,-15.9%,35.5µM*
COc1cc(C=O)c(Cl)cc1OCC(N)=O,-5.4%,10.2%,2.8%,2.1%,-0.9%,-3.2%
N=C(N)c1ccc(N=Nc2c(O)ccc3c2[nH]c2ccccc23)cc1,-3.0%,?,58µM*,50.1µM*,?,39.8µM*
CCOC(=O)CC(=O)Nc1ncnc2c1C(c1ccccc1)c1c(ccc3ccccc13)O2 (stereo not given),10.0%,12.4%,-2.7%,?,9.0%,-7.4%
Nc1ncnc2c1C(c1ccccc1)c1c(ccc3ccccc13)O2 (stereo not given),-4.9%,-3.5%,0.7%,12.6µM*,6.5%,-17.8%
O=C(NCc1cccc(F)c1)c1cccc2c1C(=O)c1ccc(N3CCC(Cc4ccccc4)CC3)cc1S2(=O)=O,?,-69.1%,?,117.4%,-74.9%,112.7%
O=C(NCc1cccc(F)c1)c1cccc2c1C(=O)c1ccc(N3CCCC3)cc1S2(=O)=O,?,28.2µM*,?,124.4%,?,79.4%

# Brought forward from above: three compounds, then new ones.
SMILES,Rango dissoc inh,EPAC1 ag,Rango-impB inh,EPAC2 antag,EPAC2 agonist,EPAC1 antagonist
Nc1ncnc2c1C(c1ccccc1)c1c(ccc3ccccc13)O2 (stereo not given),-4.9%,-3.5%,0.7%,12.6µM*,6.5%,-17.8%
O=C(NCc1cccc(F)c1)c1cccc2c1C(=O)c1ccc(N3CCC(Cc4ccccc4)CC3)cc1S2(=O)=O,?,-69.1%,?,117.4%,-74.9%,112.7%
O=C(NCc1cccc(F)c1)c1cccc2c1C(=O)c1ccc(N3CCCC3)cc1S2(=O)=O,?,28.2µM*,?,124.4%,?,79.4%
CC1CCN(c2ccc3c(c2)S(=O)(=O)c2cccc(C(=O)NCc4cccc(F)c4)c2C3=O)CC1,?,100µM*,?,i,-4.0%,62.1%
COc1ccc(N(C(=O)C(C)C)S(=O)(=O)c2ccc(Cl)cc2)cc1,0.7%,22.4%,0.7%,-8.5%,13.3%,-19.8%
COc1ccc(NC2=Nc3cccc4cccc2c34)cc1OC,-11.1%,1.9%,-1.3%,9.8%,-1.6%,-0.6%
COc1cccc(NC2=Nc3cccc4cccc2c34)c1,2.0%,7.3%,58µM*,2.6%,14.8%,-14.5%
COC(=O)c1ccc2[nH]c(C(C)(C)O)c(C)c2c1,18.1%,-6.5%,?,-10.4%,-0.2%,-2.9%
Cc1cccc(Cc2nnc(CCC(=O)N(C)CCc3ccccc3)o2)c1,10.1%,3.3%,20.6µM*,-1.6%,8.9%,9.5%
CCCCCCN1C=CC=C/C1=C/C=C(C#N)C#N,?,-550.7%,?,215.9%,-655.5%,89.1µM*
CCCCCN1C=CC=C/C1=C\C=C(C#N)C#N,?,-4.4%,?,240.1%,-436.7%,-3.8%
Cc1ccccc1NC1c2ccccc2C(=O)N1Cc1ccco1 (stereo not given),0.4%,-10.3%,-1.7%,31.6µM*,7.6%,3.3%
CC(C)C/C(O)=C/c1nc2cc(Cl)ccc2oc1=O,14.6µM*,1.1%,?,9.7%,-2.5%,2.1%
Oc1ccc(Br)cc1/C=N/n1c(C2CCCCC2)n[nH]c1=S,14.6µM*,10.1%,?,-12.4%,10.3%,3.8%
O=C(Cc1ccccc1)Nn1c(O)c(/C=C2\C=Nc3ccccc32)sc1=S,?,89.1µM*,?,-4.0%,100µM*,-2.0%
Cn1c(O)c(/C=C2\C=Nc3ccccc32)sc1=Nc1ccc(C(=O)O)cc1,-19.9%,-11.8%,?,-8.8%,1.8%,0.7%
CN(C)S(=O)(=O)c1cccc(-c2nn(-c3ccccc3)cc2/C=C(\C#N)c2nc3ccccc3[nH]2)c1,?,5.4%,?,1.4%,5.4%,0.7%
CN(C)S(=O)(=O)c1cccc(-c2nn(-c3ccccc3)cc2/C=C2\SC(=S)NC2=O)c1,-4.4%,5.5%,0.1%,-1.8%,-4.9%,70.8µM*
COc1cc(C2C(C#N)=C(N)OC3=C2C(=O)CC(C)(C)C3)c([N+](=O)[O-])cc1OC (stereo not given),?,2.5%,?,-2.0%,5.0%,7.9%

# Three compounds out of the list, sorted by formula weight, lowest first:
SMILES,Rango dissoc inh,EPAC1 ag,Rango-impB inh,EPAC2 antag,EPAC2 agonist,EPAC1 antagonist
Cn1c(O)c(/C=C2\C=Nc3ccccc32)sc1=Nc1ccc(C(=O)O)cc1,-19.9%,-11.8%,?,-8.8%,1.8%,0.7%
O=C(Cc1ccccc1)Nn1c(O)c(/C=C2\C=Nc3ccccc32)sc1=S,?,89.1µM*,?,-4.0%,100µM*,-2.0%
CN(C)S(=O)(=O)c1cccc(-c2nn(-c3ccccc3)cc2/C=C2\SC(=S)NC2=O)c1,-4.4%,5.5%,0.1%,-1.8%,-4.9%,70.8µM*
